The source of these data is US10822317B2, “Methods and compositions for wound healing” (QBiotics Limited, priority 2013, dated 2020).

The series deals with HaCaT cells. As to the kind of experiment: HaCaT scratch repopulation with Mitomycin C (migration study). The note with it: 1 μg/mL.

Turning to Mitomycin C [reference compound], the “cytotoxicity in the culture system” value is listed as “not be cytotoxic”.
